Measured values from patent US6054441A, “Oxypurine nucleosides and their congeners, and acyl derivatives thereof, for improvement of hematopoiesis” (priority 1995, dated 2000).
Where “and” joins values, the source holds several entries; their conditions need not be identical. Equal entries are not always repeated. Where two headings read alike, the source gives them in different places.

Test system: Interleukin-3 dependent bone marrow cells
Settings: PdG and dG 10 micrograms per milliliter, without IL-3

B1: IL-3: recombinant IL-3 (protein, UniProt P08700 20-152, looked up)
Interleukin-3: APMTQTTPLKTSWVNCSNMIDEIITHLKQPPLPLLDFNNLNGEDQDILMENNLRRPNLEAFNRAVKSLQNASAIESILKNLLPCLPLATAAPTRHPIHIKDGDWNEFRRKLTFYLKTLENAQAQQTTLSLAIF
With B1 the “% Dead Cells” value (24 hr) was 7.5% and 7.5 ± 12.5%, the “% Dead Cells” value (40 hr) was 6.5 ± 1.5% and the “% Dead Cells” value (60 hr) was 10.3 ± 1.9%. For the same molecule, the “% Dead Cells” value (84 hr) was 13.0% and 13.0 ± 4.0%.
